Molecular target: JMJD3 (Homo sapiens, UniProt O15054)
Test: In vitro enzyme inhibition assay for JMJD3 activity (TR-FRET)
Assay type: biochemical
Protocol: This assay determines the ability of a test compound to inhibit JMJD3 demethylase activity. Baculovirus expressed JMJD3 (GenBank Accession #NM-001080424, AA1043-end) was purchased from BPS Bioscience (Cat#50115).
The enzymatic assay of JMJD3 activity is based upon Time Resolved-Fluorescence Resonance Energy Transfer (TR-FRET) detection. The ability of test compounds to inhibit the activity of JMJD3 was determined in 384-well plate format under the following reaction conditions: 5 nM JMJD3, 250 nM H3K27me3-biotin labeled peptide (Anaspec cat #64367), 0.4 to 2 μM α-ketoglutaric acid in assay buffer of 50 mM HEPES, pH7.3, 0.005% Brij35, 0.5 mM TCEP, 0.2 mg/ml BSA, 50 μM sodium L-ascorbate, and 5 μM ammonium iron(II) sulfate. Reaction product was determined quantitatively by TR-FRET after the addition of detection reagent Phycolink Streptavidin-allophycocyanin (Prozyme) and Europium-anti-H3K27me2 antibody (PerkinElmer) in the presence of 5 mM EDTA in LANCE detection buffer (PerkinElmer) at a final concentration of 50 nM and 1 nM, respectively.
The assay reaction was initiated by the following: […] of the mixture of 750 nM H3K27me3-biotin labeled peptide and 1.2 to 6 μM alpha-ketoglutaric acid with 2 μL of 11-point serial diluted inhibitor in 3% DMSO were added to each well of plate, followed by the addition of 2 μl of 15 nM JMJD3 to initiate the reaction. The reaction mixture was incubated at RT for 30 min, and terminated by the addition of 6 μL of 5 mM EDTA in LANCE detection buffer containing 100 nM Phycolink Streptavidin-allophycocyanin and 2 nM Europium-anti-H3K27me2 antibody. Plates were read by EnVisionMultilabel Reader in TR-FRET mode (excitation at 320 nm, emission at 615 nm and 665 nm) after 1 hr incubation at RT. A ratio from the readout of 665/615 was calculated for each well and fitted to determine inhibition constant (IC50).

[1] = Table 4, cell gives A/B enantiomer values
[2] = Table 5, one class given per A and B pair

Row | IC50 [1] [nM] | IC50 [2] [nM] | SMILES
1 | 100 to 1000 | 1000 to 10000 | Cc1ccc(N(C)c2ccc3c(c2)CN[C@H]3CNc2cnccc2C(=O)O)cc1 [Example 5B, 3-[({(1R)-5-[methyl(4-tolyl)amino]isoindolinyl}methyl)amino] pyridine-4-carboxylic acid]
2 | 100 to 1000 | 1000 to 10000 | Cc1ccc(N(C)c2ccc3c(c2)CCN[C@H]3CNc2cnccc2C(=O)O)cc1 [Example 1B, 3-[({(1R)-6-[methyl(4-methylphenyl)amino]-1,2,3,4-tetrahydroisoquinolyl}methyl)amino]pyridine-4-carboxylic acid]
3 | 100 to 1000 | 1000 to 10000 | Cc1ccc(N(C)c2ccc3c(c2)CCN[C@@H]3CNc2cnccc2C(=O)O)cc1 [Example 1A, 3-[({(1S)-6-[methyl(4-methylphenyl)amino]-1,2,3,4-tetrahydroisoquinolyl}methyl)amino]pyridine-4-carboxylic acid]
4 | 100 to 1000 | 1000 to 10000 | Cc1ccc(N(C)c2ccc3c(c2)CN[C@@H]3CNc2cnccc2C(=O)O)cc1 [Example 5A, 3-[({(1S)-5-[methyl(4-tolyl)amino]isoindolinyl}methyl)amino]pyridine-4-carboxylic acid]

— patent US10059687B2, “Histone demethylase inhibitors” (CELGENE QUANTICEL RESEARCH, INC., priority 2015, dated 2018)
